# Measured values published in patent US5744340A, “Expression of human inducible nitric oxide synthase” (Schering Corporation, priority 1995, dated 1998).
# Test system: N=C(N)NCCC[C@H](N)C(=O)O
# Test: cells, lysate or membranes named
# Conditions: other: crude cell extract, E. coli expressed iNOS; 37.0 °C
substance,measurement,value
human iNOS (Homo sapiens),Km,8 µM
